Measurements reported in PubChem BioAssay AID720582 (The Scripps Research Institute Molecular Screening Center, 2013).
Only a part is listed here, and it is no random draw. Activity calls are given as the source filed them.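 How the source made its calls: active means inhibition above a per-campaign cutoff equal to the mean of compounds falling between control-based bounds plus 3 SD (cut at about 20% in these data); inactive means the rest.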

Amino acid sequences for entries named in this document (tags omitted). Residues count along the entry.
UniProt O14672, 214-748 limits assumed: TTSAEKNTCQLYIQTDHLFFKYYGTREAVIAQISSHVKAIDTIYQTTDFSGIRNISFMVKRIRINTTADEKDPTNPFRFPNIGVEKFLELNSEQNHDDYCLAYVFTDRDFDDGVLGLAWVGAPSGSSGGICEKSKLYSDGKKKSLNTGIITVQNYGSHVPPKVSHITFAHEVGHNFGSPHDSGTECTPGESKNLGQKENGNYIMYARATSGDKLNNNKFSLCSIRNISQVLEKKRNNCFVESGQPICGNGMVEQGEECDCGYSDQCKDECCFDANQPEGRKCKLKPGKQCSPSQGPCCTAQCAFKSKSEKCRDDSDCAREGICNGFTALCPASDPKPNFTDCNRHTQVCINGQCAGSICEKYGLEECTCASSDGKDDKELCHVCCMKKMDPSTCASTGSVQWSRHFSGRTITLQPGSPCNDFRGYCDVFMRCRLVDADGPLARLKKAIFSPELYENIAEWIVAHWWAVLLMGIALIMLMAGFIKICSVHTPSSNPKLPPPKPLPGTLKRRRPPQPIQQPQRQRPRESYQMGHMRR

Target: Disintegrin and metalloproteinase domain-containing protein 10 (Homo sapiens) (UniProt O14672)
Test: human ADAM10 inhibitors, primary screen, biochemical, QFRET, HTS (AID 720582);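 further: 0% = DMSO wells while the 100% control is not disclosed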
Details: recombinant ADAM10, EDANS/DABCYL FRET peptide cleavage, 3 h; at 7 µM; hits give high values

| Structure (SMILES) | inhibition |
| --- | --- |
| CCC(=O)N(c1ccccc1)C1(COC)CCN(CCc2cccs2)CC1 | inactive: -4.55% |
| CCC(=O)N(c1ccccc1)C1(COC)CCN(CCn2nnn(CC)c2=O)CC1 | inactive: -18% |
